{"source": "PubChem BioAssay AID2306", "about": "(GlaxoSmithKline (GSK), 2010)", "note": "This is a selection; strong and weak results do not stand in their true shares. Active and inactive are the calls of the source. The rule behind the calls is not given here."}
{"test": "inhibition of 3D7 malaria parasite growth – strain 3D7 (AID 2306);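 note: 0% = DMSO wells and 100% = chloroquine plus artemisinin control wells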", "conditions": "P. falciparum 3D7 erythrocytic growth, LDH absorbance, 72 h; at 2 µM; stronger effect = higher value"}
{"smiles": "COc1cc(C(=O)NC(SC2=NCCS2)C(Cl)(Cl)Cl)cc(OC)c1OC", "note": "(stereo unspecified)", "growth inhibition": "active: 88%"}
